Data published in patent publication US20170152258A9, “Substituted Pyridopyrazines as Syk Inhibitors” (HUTCHISON MEDIPHARMA LIMITED, priority 2012, published 2017).

Biological target: Syk kinase (Homo sapiens, UniProt P43405)
Test: SYK Enzymatic Assay (Z-LYTE Tyr 2 peptide)
Type: biochemical
Conditions: 8 concentrations 1 μM down to 0.0003 μM
Method: Syk kinase assay are performed in vitro using Kit-Tyr 2 Peptide (Invitrogen, Cat. No. PV3191) and in a 384-well assay plate. […] The 384-well assay plate (Corning, Cat. No. 3575) is mixed and incubated at room temperature for 1 hour. 10 μL of the Development Solution (prepared by diluting Development Reagent A (Cat. No. PV3297) to 1/32 with Development Buffer (Cat. No. PV3127)) is then added to each well, mixed and incubated at room temperature for another 1 hour. The reactions are then stopped by adding 10 μL of the Stop Reagent (Invitrogen, Cat. No. PV3094), and the plate is read with Wallac 1420 VICTOR^3 Multilabel Counter (PerkinElmer™) at 445 nm and 520 nm fluorescence. All compounds are tested at 8 concentrations (1 μM down to 0.0003 μM) using a 1:3 serial dilution scheme.

CN(C)CCC(=O)N1CCO[C@H](COc2nc(-c3ccc(N4CCOCC4)cc3)cc3nccnc23)C1 [Compound 60, (S)-3-(dimethylamino)-1-(2-((7-(4-morpholinophenyl)pyrido[4,3-b]pyrazin-5-yloxy)methyl)morpholino)propan-1-one]
IC50: 588 nM
